Calls of active or inactive are those of the source. The calls are words filed in the database; no cut-off is given here.

Amino acid sequences for entries named in this document (tags omitted).
UniProt P40337, whole entry, looked up: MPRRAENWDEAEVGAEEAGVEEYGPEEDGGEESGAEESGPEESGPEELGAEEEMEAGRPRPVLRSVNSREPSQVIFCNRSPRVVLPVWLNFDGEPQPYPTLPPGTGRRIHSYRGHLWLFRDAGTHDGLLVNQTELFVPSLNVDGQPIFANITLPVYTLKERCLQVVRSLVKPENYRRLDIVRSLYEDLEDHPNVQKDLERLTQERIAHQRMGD
UniProt P25440, whole entry, looked up: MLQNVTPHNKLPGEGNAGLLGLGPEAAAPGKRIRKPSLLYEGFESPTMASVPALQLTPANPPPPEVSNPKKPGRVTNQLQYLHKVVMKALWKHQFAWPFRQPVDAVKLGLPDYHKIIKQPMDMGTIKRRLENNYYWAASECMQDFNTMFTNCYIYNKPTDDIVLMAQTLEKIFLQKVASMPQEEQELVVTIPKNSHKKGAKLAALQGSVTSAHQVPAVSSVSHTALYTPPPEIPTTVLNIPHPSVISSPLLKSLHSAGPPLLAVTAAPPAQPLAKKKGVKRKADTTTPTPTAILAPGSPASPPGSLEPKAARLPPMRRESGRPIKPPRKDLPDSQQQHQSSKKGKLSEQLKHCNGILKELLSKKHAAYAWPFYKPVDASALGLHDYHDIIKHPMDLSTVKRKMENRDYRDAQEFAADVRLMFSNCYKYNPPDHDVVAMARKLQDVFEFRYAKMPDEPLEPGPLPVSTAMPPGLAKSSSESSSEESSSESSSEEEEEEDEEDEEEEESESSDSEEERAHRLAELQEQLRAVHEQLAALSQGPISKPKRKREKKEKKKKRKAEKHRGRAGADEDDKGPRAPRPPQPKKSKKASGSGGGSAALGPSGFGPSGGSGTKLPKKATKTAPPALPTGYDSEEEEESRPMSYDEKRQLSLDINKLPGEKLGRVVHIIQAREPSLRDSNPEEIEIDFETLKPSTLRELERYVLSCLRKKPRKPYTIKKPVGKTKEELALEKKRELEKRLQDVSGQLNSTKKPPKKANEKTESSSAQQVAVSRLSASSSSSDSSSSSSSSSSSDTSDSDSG
UniProt Q15369, whole entry, looked up: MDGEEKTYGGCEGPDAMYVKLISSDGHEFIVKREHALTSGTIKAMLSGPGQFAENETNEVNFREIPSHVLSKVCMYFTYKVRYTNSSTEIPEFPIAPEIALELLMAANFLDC
UniProt Q15059, whole entry, looked up: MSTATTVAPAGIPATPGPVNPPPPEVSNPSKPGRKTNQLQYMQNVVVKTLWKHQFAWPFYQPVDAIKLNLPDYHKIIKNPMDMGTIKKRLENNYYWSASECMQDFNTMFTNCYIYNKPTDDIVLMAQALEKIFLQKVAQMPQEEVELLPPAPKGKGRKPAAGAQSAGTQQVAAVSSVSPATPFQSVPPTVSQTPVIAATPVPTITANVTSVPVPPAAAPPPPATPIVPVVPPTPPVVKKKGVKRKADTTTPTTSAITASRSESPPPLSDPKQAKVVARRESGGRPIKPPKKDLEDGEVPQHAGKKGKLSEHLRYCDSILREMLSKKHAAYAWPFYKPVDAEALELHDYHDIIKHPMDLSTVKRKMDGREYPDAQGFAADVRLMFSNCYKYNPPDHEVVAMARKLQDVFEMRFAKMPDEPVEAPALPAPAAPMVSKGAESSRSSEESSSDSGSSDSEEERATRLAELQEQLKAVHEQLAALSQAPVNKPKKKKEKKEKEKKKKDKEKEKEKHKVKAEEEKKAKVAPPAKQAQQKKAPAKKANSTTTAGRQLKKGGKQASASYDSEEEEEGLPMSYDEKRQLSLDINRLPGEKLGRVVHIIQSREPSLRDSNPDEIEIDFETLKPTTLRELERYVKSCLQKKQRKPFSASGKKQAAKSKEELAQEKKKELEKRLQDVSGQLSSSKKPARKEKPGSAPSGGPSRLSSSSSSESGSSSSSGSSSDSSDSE

The values below come from ChEMBL document CHEMBL4219029, “Impact of Target Warhead and Linkage Vector on Inducing Protein Degradation: Comparison of Bromodomain and Extra-Terminal (BET) Degraders Derived from Triazolodiazepine (JQ1) and Tetrahydroquinoline (I-BET726) BET Inhibitor Scaffolds” (J Med Chem, 2018).

Holding throughout (type): cell-based
Experiment [1] concerns the target T1, von Hippel-Lindau disease tumor suppressor/Bromodomain-containing protein 4 (Homo sapiens, UniProt O60885+P40337). Kind of experiment: Proteolysis targeting chimera activity in human HeLa cells assessed as induction of VCB-mediated delivery of BRD4 short isoform for protein degradation by proteasome by measuring drug level causing 50% cellular protein depletion incubated for 24 hrs by Western blotting method.

Experiment [2] addresses T1, von Hippel-Lindau disease tumor suppressor/Bromodomain-containing protein 4. Kind of experiment: Proteolysis targeting chimera activity in human HeLa cells assessed as induction of VCB-mediated delivery of BRD4 long isoform for protein degradation by proteasome by measuring drug level causing 50% cellular protein depletion incubated for 24 hrs by Western blotting method.

For experiment [3], the target named is T2, von Hippel-Lindau disease tumor suppressor/Bromodomain-containing protein 2/Elongin-B/Elongin-C (Homo sapiens) (UniProt P25440+P40337+Q15370+Q15369). Kind of experiment: Proteolysis targeting chimera activity in human HeLa cells assessed as induction of VCB-mediated delivery of BRD2 for protein degradation by proteasome at 1 to 10 uM incubated for 6 hrs by Western blotting method.

The target in experiment [4] is T3, von Hippel-Lindau disease tumor suppressor/Bromodomain-containing protein 3/Elongin-B/Elongin-C (Homo sapiens, UniProt Q15059+P40337+Q15370+Q15369). Kind of experiment: Proteolysis targeting chimera activity in human HeLa cells assessed as induction of VCB-mediated delivery of BRD3 for protein degradation by proteasome at 1 to 10 uM incubated for 24 hrs by Western blotting method.

Experiment [5] has as its target T3, von Hippel-Lindau disease tumor suppressor/Bromodomain-containing protein 3/Elongin-B/Elongin-C. Kind of experiment: Proteolysis targeting chimera activity in human HeLa cells assessed as induction of VCB-mediated delivery of BRD3 for protein degradation by proteasome at 1 to 10 uM incubated for 6 hrs by Western blotting method. In general terms: Immunoblotting shows a protein as a band on a membrane.

For experiment [6], the target named is T2, von Hippel-Lindau disease tumor suppressor/Bromodomain-containing protein 2/Elongin-B/Elongin-C (Homo sapiens). Nature of the experiment: Proteolysis targeting chimera activity in human HeLa cells assessed as induction of VCB-mediated delivery of BRD2 for protein degradation by proteasome at 1 to 10 uM incubated for 24 hrs by Western blotting method.

`Cc1ncsc1-c1ccc(CNC(=O)[C@@H]2C[C@@H](O)CN2C(=O)[C@@H](NC(=O)COCCOCCOCCOCCNC(=O)C[C@@H]2N=C(c3ccc(Cl)cc3)c3c(sc(C)c3C)-n3c(C)nnc32)C(C)(C)C)cc1`: the Activity entry in experiment [1] and in experiment [2] was “Dose-dependent effect” in each case.

Turning to `CC(=O)N1c2ccc(-c3ccc(C(=O)NCCOCCOCCOCC(=O)N[C@H](C(=O)N4C[C@H](O)C[C@H]4C(=O)NCc4ccc(-c5scnc5C)cc4)C(C)(C)C)cc3)cc2[C@H](Nc2ccc(Cl)cc2)C[C@@H]1C`, the outcome in experiment [3], in experiment [4], in experiment [5] and in experiment [6] was inactive.
